# Binding of CDR-mutated scFvs to a peptide of the spike HR2 region

Values reported by Li et al. 2023, doi:10.1038/s41467-023-39022-2 (FLAb copy).

Binding partner: SARS-CoV-2 spike HR2 peptide, sequence PDVDLGDISGINAS.

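The variants were designed computationally from a first round of random CDR variants and then made and measured. Group labels follow the data file (En: ensemble of fine-tuned language models; HC: hill climbing; Gen: genetic algorithm; Gibbs: Gibbs sampling; a sequence that several methods proposed may carry one label only). AlphaSeq pools MATa yeast showing the antibodies with MATalpha yeast showing the peptide. Mating (16 h, 30 °C) was followed by selection of diploids and sequencing of their barcodes. Each replicate has its own calibration line, from reference interactions of the BCL2 family. Mating was done six times.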

Parent: Ab-14, a human scFv built as VH, a 15-residue (Gly4Ser)3 linker, VL. Only the CDRs of the heavy chain vary.
VH: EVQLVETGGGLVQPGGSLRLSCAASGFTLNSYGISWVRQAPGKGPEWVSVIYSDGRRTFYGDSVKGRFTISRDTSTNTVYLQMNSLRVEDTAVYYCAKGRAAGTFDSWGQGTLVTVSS
VL: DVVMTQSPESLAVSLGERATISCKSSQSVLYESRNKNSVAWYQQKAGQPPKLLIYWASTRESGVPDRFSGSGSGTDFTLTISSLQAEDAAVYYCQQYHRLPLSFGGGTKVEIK

Sequences are complete VH domains.
This list holds designs with more than six substitutions.
The Kd shown is the geometric mean over detected replicates; a lower Kd is a better binder.
Where no diploid with the target was found in any replicate, the entry reads "nd": below detection, most likely a poor binder, though not proof of it.
A sequence measured in both rounds can read differently, since the two assays cover different ranges.
In the paper, a design with two or fewer of six values counts as a poor binder.
As a blank, each scFv also met three strains without target: over all heavy chain designs, 1% of these pairings were detected, typically at 120 nM and seldom below 7.0 nM. The control count says in how many pairings with the empty strains this scFv gave a signal.
Of ten entries with the parent sequence, four were seen in most replicates (averages 2.2 nM to 240 nM), three in one and three in none, so single entries are noisy.

With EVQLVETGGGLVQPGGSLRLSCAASGFPIDEYGISWVRQAPGKGPEWVSVIYADGRRTVYSDNVKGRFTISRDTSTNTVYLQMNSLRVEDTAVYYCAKGNYGLSIAVWGQGTLVTVSS [En_Gibbs] the result was 2.7 nM (6 of 6 replicates; controls 0 of 18). For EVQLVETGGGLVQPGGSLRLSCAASGFSLDEYGISWVRQAPGKGPEWVSVIYADGMRTAYADSVKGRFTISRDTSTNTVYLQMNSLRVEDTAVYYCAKGNVAGTFDVWGQGTLVTVSS [En_Gen], the assay gave 320 pM (6 of 6 replicates; controls 0 of 18). The variant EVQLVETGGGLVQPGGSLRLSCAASGFDLNEYGISWVRQAPGKGPEWVSVIYADGRRTFYADSVKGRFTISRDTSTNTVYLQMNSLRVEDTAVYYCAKGEVAGTFKFWGQGTLVTVSS [En_HC] showed 230 pM (6 of 6 replicates; controls 0 of 18). The variant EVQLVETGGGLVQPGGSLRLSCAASGFDLNEYGISWVRQAPGKGPEWVSVIYADGQRTAYADSVKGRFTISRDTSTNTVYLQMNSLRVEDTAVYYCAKGGVAGTFDVWGQGTLVTVSS [En_Gen] showed 280 pM (6 of 6 replicates; controls 0 of 18). The variant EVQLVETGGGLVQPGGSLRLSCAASGFNLNEYGISWVRQAPGKGPEWVSVIYADGRRTFYSDSVKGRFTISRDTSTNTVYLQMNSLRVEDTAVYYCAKGETAGTFDVWGQGTLVTVSS [En_HC] showed 470 pM (6 of 6 replicates; controls 0 of 18). The variant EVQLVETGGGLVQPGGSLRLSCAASGFDLNEYGISWVRQAPGKGPEWVSVIYADGMRTKYSESVKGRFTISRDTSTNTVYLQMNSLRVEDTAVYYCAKGTGDGSFQLWGQGTLVTVSS [En_Gibbs] gave 7.4 nM (6 of 6 replicates; controls 0 of 18). With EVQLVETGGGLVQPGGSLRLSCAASGFDLNEYGISWVRQAPGKGPEWVSVIYADGRRTAYTDSVKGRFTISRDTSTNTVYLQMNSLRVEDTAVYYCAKGEAAGTFDKWGQGTLVTVSS [En_HC] the result was 28 pM (2 of 6 replicates; controls 0 of 18). With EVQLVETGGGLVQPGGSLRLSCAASGFDLNEYGISWVRQAPGKGPEWVSVIYADGMRTAYADDVKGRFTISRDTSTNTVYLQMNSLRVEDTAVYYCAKGTNAGTFDIWGQGTLVTVSS [En_Gen] the result was 200 pM (6 of 6 replicates; controls 0 of 18).

The variant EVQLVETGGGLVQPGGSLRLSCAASGFDLDEYGISWVRQAPGKGPEWVSVIYADGRRTFYTDSVKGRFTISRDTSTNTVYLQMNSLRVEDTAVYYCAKGQLAGTFDLWGQGTLVTVSS [En_HC] showed 540 pM (6 of 6 replicates; controls 0 of 18). The variant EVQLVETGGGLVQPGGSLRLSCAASGFDLDEYGISWVRQAPGKGPEWVSVIYADGVRTAYADSVKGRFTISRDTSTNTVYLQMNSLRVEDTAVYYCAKGNTAGTFDTWGQGTLVTVSS [En_Gen] gave 7.2 pM (6 of 6 replicates; controls 0 of 18). For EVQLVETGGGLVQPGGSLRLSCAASGFDLEDYGISWVRQAPGKGPEWVSVIYADGRRTAYADSVKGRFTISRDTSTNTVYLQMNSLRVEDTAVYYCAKGNVAGTFDQWGQGTLVTVSS [En_Gen], the assay gave 710 pM (6 of 6 replicates; controls 0 of 18). The variant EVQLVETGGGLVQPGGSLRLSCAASGFDLNEYGISWVRQAPGKGPEWVSVIYADGRRTAYADSVKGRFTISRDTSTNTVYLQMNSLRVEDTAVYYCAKGNTAGTFDVWGQGTLVTVSS [En_Gen] showed 220 pM (6 of 6 replicates; controls 0 of 18). For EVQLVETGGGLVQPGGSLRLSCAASGFDLDEYGISWVRQAPGKGPEWVSVIYADGMRTAYVDSVKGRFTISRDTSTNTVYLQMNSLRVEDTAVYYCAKGTNAGTFDVWGQGTLVTVSS [En_Gen], the assay gave 190 pM (6 of 6 replicates; controls 0 of 18). The variant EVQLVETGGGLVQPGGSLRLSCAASGFDLNEYGISWVRQAPGKGPEWVSVIYADGMRTFYTDSVKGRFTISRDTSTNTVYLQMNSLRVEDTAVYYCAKGEVAGTFDLWGQGTLVTVSS [En_HC] showed 290 pM (6 of 6 replicates; controls 0 of 18). For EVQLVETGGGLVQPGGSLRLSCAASGFDLDEYGISWVRQAPGKGPEWVSVIYADGQRTAYSDSVKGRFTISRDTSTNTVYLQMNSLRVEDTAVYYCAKGNVAGTFDVWGQGTLVTVSS [En_Gen], the assay gave 440 pM (6 of 6 replicates; controls 1 of 18). The variant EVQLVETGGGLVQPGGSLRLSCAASGFDINEYGISWVRQAPGKGPEWVSVIYADGLRTAYSQQVKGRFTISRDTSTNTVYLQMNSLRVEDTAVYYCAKGQDLVDVVDWGQGTLVTVSS [En_Gibbs] showed nd (0 of 6 replicates; controls 0 of 18).

The variant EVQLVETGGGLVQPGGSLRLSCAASGFDINEYGISWVRQAPGKGPEWVSVIYADGRREAYAESVKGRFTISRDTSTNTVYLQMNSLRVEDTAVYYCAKGFNQTINLVWGQGTLVTVSS [En_Gibbs] gave nd (0 of 6 replicates; controls 0 of 18). For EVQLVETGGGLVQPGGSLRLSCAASGFDLNEYGISWVRQAPGKGPEWVSVIYADGQRTAYADSVKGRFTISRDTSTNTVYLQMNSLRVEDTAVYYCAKGEVAGTFDMWGQGTLVTVSS [En_Gen], the assay gave 690 pM (4 of 6 replicates; controls 0 of 18). For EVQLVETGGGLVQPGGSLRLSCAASGQDLNEYGISWVRQAPGKGPEWVSVIYADGLRQAYSENVKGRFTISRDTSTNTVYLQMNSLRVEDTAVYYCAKGNIFQFDDVWGQGTLVTVSS [En_Gibbs], the assay gave nd (0 of 6 replicates; controls 0 of 18). With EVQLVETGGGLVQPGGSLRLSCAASGFDLNEYGISWVRQAPGKGPEWVSVIYADGKRTAYADSVKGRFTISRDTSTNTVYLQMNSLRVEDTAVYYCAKGNQAGTFDLWGQGTLVTVSS [En_Gen] the result was 470 pM (6 of 6 replicates; controls 0 of 18). For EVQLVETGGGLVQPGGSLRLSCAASGFSLDEYGISWVRQAPGKGPEWVSVIYADGMRTFYADSVKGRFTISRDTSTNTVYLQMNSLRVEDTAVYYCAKGNSAGTFDSWGQGTLVTVSS [En_HC], the assay gave 4.7 nM (6 of 6 replicates; controls 0 of 18). With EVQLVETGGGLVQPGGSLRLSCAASGFDLNEYGISWVRQAPGKGPEWVSVIYADGRRTFYTDSVKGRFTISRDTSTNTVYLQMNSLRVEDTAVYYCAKGAIAGTFDQWGQGTLVTVSS [En_HC] the result was 240 pM (6 of 6 replicates; controls 0 of 18). The variant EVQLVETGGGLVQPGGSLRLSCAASGFDLNEYGISWVRQAPGKGPEWVSVIYADGRRTSYKDSVKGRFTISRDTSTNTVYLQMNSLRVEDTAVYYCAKGEVAGTFNVWGQGTLVTVSS [En_HC] gave 430 pM (6 of 6 replicates; controls 0 of 18).